In PubChem BioAssay (NCI):
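A five-concentration, 48-hour dose response in 96-well plates underlies each endpoint, interpolated linearly between surrounding concentrations. GI50 is the concentration that inhibits growth by half. TGI: concentration producing complete growth inhibition.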

Legend:
Assay in all cases: growth of human tumour cells (NCI), 48 h
OVCAR-3 ovarian = system: OVCAR-3 ovarian
KM12 colon = system: KM12 colon
HT29 colon = system: HT29 colon
UACC-257 melanoma = system: UACC-257 melanoma
XF 498 CNS = system: XF 498 CNS
SF-268 CNS = system: SF-268 CNS
SNB-19 CNS = system: SNB-19 CNS
HCT-15 colon = system: HCT-15 colon
NCI-H460 lung = system: NCI-H460 lung
RXF 393 renal = system: RXF 393 renal
SK-MEL-28 melanoma = system: SK-MEL-28 melanoma
CAKI-1 renal = system: CAKI-1 renal
CCRF-CEM leukemia = system: CCRF-CEM leukemia
HL-60(TB) leukemia = system: HL-60(TB) leukemia
SNB-78 CNS = system: SNB-78 CNS
UO-31 renal = system: UO-31 renal
M19-MEL melanoma = system: M19-MEL melanoma
SK-MEL-2 melanoma = system: SK-MEL-2 melanoma
HOP-62 NSCLC = system: HOP-62 NSCLC
A498 renal = system: A498 renal
DLD-1 colon = system: DLD-1 colon
EKVX NSCLC = system: EKVX NSCLC
A549 NSCLC = system: A549 NSCLC
OVCAR-5 ovarian = system: OVCAR-5 ovarian
RXF-631 renal = system: RXF-631 renal
SK-MEL-5 melanoma = system: SK-MEL-5 melanoma
KM20L2 colon = system: KM20L2 colon
LOX IMVI melanoma = system: LOX IMVI melanoma
SNB-75 CNS = system: SNB-75 CNS
SR leukemia = system: SR leukemia
SF-539 CNS = system: SF-539 CNS
M14 melanoma = system: M14 melanoma
HOP-92 NSCLC = system: HOP-92 NSCLC
NCI-H522 lung = system: NCI-H522 lung
OVCAR-4 ovarian = system: OVCAR-4 ovarian
IGROV1 ovarian = system: IGROV1 ovarian
SW-620 colon = system: SW-620 colon
K-562 leukemia = system: K-562 leukemia
NCI-H322M lung = system: NCI-H322M lung
MOLT-4 leukemia = system: MOLT-4 leukemia
MALME-3M melanoma = system: MALME-3M melanoma
UACC-62 melanoma = system: UACC-62 melanoma
NCI-H23 lung = system: NCI-H23 lung
DMS 273 small cell lung = system: DMS 273 small cell lung
ACHN renal = system: ACHN renal
SN12C renal = system: SN12C renal
U251 CNS = system: U251 CNS
TK-10 renal = system: TK-10 renal
SK-OV-3 ovarian = system: SK-OV-3 ovarian
NCI-H226 lung = system: NCI-H226 lung
786-0 renal = system: 786-0 renal
HOP-18 NSCLC = system: HOP-18 NSCLC
SF-295 CNS = system: SF-295 CNS
LXFL 529 NSCLC = system: LXFL 529 NSCLC
HCT-116 colon = system: HCT-116 colon
COLO 205 colon = system: COLO 205 colon
DMS 114 small cell lung = system: DMS 114 small cell lung
HCC-2998 colon = system: HCC-2998 colon
OVCAR-8 ovarian = system: OVCAR-8 ovarian
RPMI-8226 leukemia = system: RPMI-8226 leukemia

## CCN(CC)C(=O)Oc1ccc(COC(C)=O)nc1
OVCAR-3 ovarian
  TGI: > 100 µM
KM12 colon
  TGI: > 100 µM
HT29 colon
  TGI: > 100 µM
UACC-257 melanoma
  TGI: > 100 µM
XF 498 CNS
  TGI: > 100 µM
SF-268 CNS
  TGI: > 100 µM
SNB-19 CNS
  TGI: > 100 µM
HCT-15 colon
  TGI: > 100 µM
NCI-H460 lung
  TGI: > 100 µM
RXF 393 renal
  TGI: > 100 µM
SK-MEL-28 melanoma
  TGI: > 100 µM
CAKI-1 renal
  TGI: > 100 µM
CCRF-CEM leukemia
  TGI: > 100 µM
HL-60(TB) leukemia
  TGI: > 100 µM
SNB-78 CNS
  TGI: > 100 µM
UO-31 renal
  TGI: > 100 µM
M19-MEL melanoma
  TGI: > 100 µM
SK-MEL-2 melanoma
  TGI: > 100 µM
HOP-62 NSCLC
  TGI: > 100 µM
A498 renal
  TGI: > 100 µM
DLD-1 colon
  TGI: > 100 µM
EKVX NSCLC
  TGI: > 100 µM
A549 NSCLC
  TGI: > 100 µM
OVCAR-5 ovarian
  TGI: > 100 µM
RXF-631 renal
  TGI: > 100 µM
SK-MEL-5 melanoma
  TGI: > 100 µM
KM20L2 colon
  TGI: > 100 µM
LOX IMVI melanoma
  TGI: > 100 µM
SNB-75 CNS
  TGI: > 100 µM
SR leukemia
  TGI: > 100 µM
SF-539 CNS
  TGI: > 100 µM
M14 melanoma
  TGI: > 100 µM
HOP-92 NSCLC
  TGI: > 100 µM
NCI-H522 lung
  TGI: > 100 µM
OVCAR-4 ovarian
  TGI: > 100 µM
IGROV1 ovarian
  TGI: > 100 µM
SW-620 colon
  TGI: > 100 µM
K-562 leukemia
  TGI: > 100 µM
NCI-H322M lung
  TGI: > 100 µM
MOLT-4 leukemia
  TGI: > 100 µM
MALME-3M melanoma
  TGI: > 100 µM
UACC-62 melanoma
  TGI: > 100 µM
NCI-H23 lung
  TGI: > 100 µM
DMS 273 small cell lung
  TGI: > 100 µM
ACHN renal
  TGI: > 100 µM
SN12C renal
  TGI: > 100 µM
U251 CNS
  TGI: > 100 µM
TK-10 renal
  TGI: > 100 µM
SK-OV-3 ovarian
  TGI: > 100 µM
NCI-H226 lung
  TGI: > 100 µM
786-0 renal
  TGI: > 100 µM
HOP-18 NSCLC
  TGI: > 100 µM
SF-295 CNS
  TGI: > 100 µM
LXFL 529 NSCLC
  TGI: > 100 µM
HCT-116 colon
  TGI: > 100 µM
COLO 205 colon
  TGI: > 100 µM
DMS 114 small cell lung
  TGI: > 100 µM

## c1ccc(CNCCNCc2ccccc2)cc1
OVCAR-3 ovarian
  GI50: 27.6 µM
  TGI: > 100 µM
KM12 colon
  GI50: 15.5 µM
  TGI: > 100 µM
HT29 colon
  GI50: 32.1 µM
  TGI: > 100 µM
UACC-257 melanoma
  GI50: 34.2 µM
  TGI: > 100 µM
XF 498 CNS
  GI50: 80.9 µM
  TGI: > 100 µM
SF-268 CNS
  GI50: 24.1 µM
  TGI: 86.7 µM
SNB-19 CNS
  GI50: 0.297 µM
  TGI: 85.1 µM
HCT-15 colon
  GI50: 20.2 µM
  TGI: > 100 µM
NCI-H460 lung
  GI50: 15.4 µM
  TGI: > 100 µM
RXF 393 renal
  GI50: 26.7 µM
  TGI: 81 µM
SK-MEL-28 melanoma
  GI50: 3.02 µM
  TGI: 57.2 µM
CAKI-1 renal
  GI50: 0.456 µM
  TGI: 44.4 µM
CCRF-CEM leukemia
  GI50: 5.19 µM
  TGI: 79.6 µM
HL-60(TB) leukemia
  GI50: 53.9 µM
  TGI: > 100 µM
SNB-78 CNS
  GI50: 23.3 µM
  TGI: > 100 µM
UO-31 renal
  GI50: 30.4 µM
  TGI: > 100 µM
M19-MEL melanoma
  GI50: 11.9 µM
  TGI: 47.9 µM
SK-MEL-2 melanoma
  GI50: 15.3 µM
  TGI: 52.6 µM
HOP-62 NSCLC
  GI50: 18.3 µM
  TGI: 64.2 µM
A498 renal
  GI50: 24.4 µM
  TGI: 68.5 µM
DLD-1 colon
  GI50: 20.9 µM
  TGI: 88 µM
EKVX NSCLC
  GI50: 27.7 µM
  TGI: > 100 µM
A549 NSCLC
  GI50: 26.3 µM
  TGI: > 100 µM
OVCAR-5 ovarian
  GI50: 40.8 µM
  TGI: > 100 µM
RXF-631 renal
  GI50: 15.1 µM
  TGI: > 100 µM
SK-MEL-5 melanoma
  GI50: 15.6 µM
  TGI: 51.9 µM
KM20L2 colon
  GI50: 23.2 µM
  TGI: > 100 µM
LOX IMVI melanoma
  GI50: 26.1 µM
  TGI: > 100 µM
SNB-75 CNS
  GI50: 25.4 µM
  TGI: > 100 µM
SR leukemia
  GI50: 14.9 µM
  TGI: 48.3 µM
SF-539 CNS
  GI50: 23.1 µM
  TGI: 74.9 µM
M14 melanoma
  GI50: 17.1 µM
  TGI: 65.9 µM
HOP-92 NSCLC
  GI50: 43.4 µM
  TGI: > 100 µM
NCI-H522 lung
  GI50: 20.1 µM
  TGI: 76.3 µM
OVCAR-4 ovarian
  GI50: 27.1 µM
  TGI: > 100 µM
IGROV1 ovarian
  GI50: 25.6 µM
  TGI: 93.2 µM
SW-620 colon
  GI50: 24.1 µM
  TGI: > 100 µM
K-562 leukemia
  GI50: 24 µM
  TGI: > 100 µM
HCC-2998 colon
  GI50: 30.8 µM
  TGI: > 100 µM
NCI-H322M lung
  GI50: 25.9 µM
  TGI: > 100 µM
MOLT-4 leukemia
  GI50: 11.4 µM
  TGI: 46 µM
MALME-3M melanoma
  GI50: 25.1 µM
  TGI: 76.6 µM
UACC-62 melanoma
  GI50: 12.5 µM
  TGI: 84.6 µM
NCI-H23 lung
  GI50: 20.1 µM
  TGI: 72.3 µM
DMS 273 small cell lung
  GI50: 24.5 µM
  TGI: > 100 µM
ACHN renal
  GI50: 16.5 µM
  TGI: > 100 µM
SN12C renal
  GI50: 25 µM
  TGI: > 100 µM
U251 CNS
  GI50: 18.8 µM
  TGI: > 100 µM
TK-10 renal
  GI50: 40.6 µM
  TGI: > 100 µM
SK-OV-3 ovarian
  GI50: 23.2 µM
  TGI: > 100 µM
NCI-H226 lung
  GI50: 31.7 µM
  TGI: > 100 µM
786-0 renal
  GI50: 22.4 µM
  TGI: > 100 µM
HOP-18 NSCLC
  GI50: 12.9 µM
  TGI: 97.9 µM
SF-295 CNS
  GI50: 26.9 µM
  TGI: > 100 µM
LXFL 529 NSCLC
  GI50: 20.7 µM
  TGI: > 100 µM
OVCAR-8 ovarian
  GI50: 24.9 µM
  TGI: > 100 µM
RPMI-8226 leukemia
  GI50: 26.2 µM
  TGI: 68.5 µM
HCT-116 colon
  GI50: 18.7 µM
  TGI: > 100 µM
COLO 205 colon
  GI50: 17.9 µM
  TGI: 44.2 µM
DMS 114 small cell lung
  GI50: 31.8 µM
  TGI: > 100 µM
